Legend:
[1] = tested on: sAPPβ (BACE1 cleavage of SEAP-APPwt) in SY5Y-BACEGFP-SEAPAPPwt cells; test: cell-based BACE1 assay (sAPPβ modified ELISA); settings: read-out: cell-based IC50 (sAPPβ), 12-point dose-response; 12 concentrations 0.1 nM to 30 μM, 96-well format (FIG. 8)
[2] = target: purified recombinant β-secretase (BACE1) (Homo sapiens, UniProt P56817); test: BACE1 FRET enzymatic assay (Invitrogen)

The chains behind the UniProt entries cited, without tags or fusion partners. Residues count along the entry.
UniProt P56817, 46-501 limits assumed: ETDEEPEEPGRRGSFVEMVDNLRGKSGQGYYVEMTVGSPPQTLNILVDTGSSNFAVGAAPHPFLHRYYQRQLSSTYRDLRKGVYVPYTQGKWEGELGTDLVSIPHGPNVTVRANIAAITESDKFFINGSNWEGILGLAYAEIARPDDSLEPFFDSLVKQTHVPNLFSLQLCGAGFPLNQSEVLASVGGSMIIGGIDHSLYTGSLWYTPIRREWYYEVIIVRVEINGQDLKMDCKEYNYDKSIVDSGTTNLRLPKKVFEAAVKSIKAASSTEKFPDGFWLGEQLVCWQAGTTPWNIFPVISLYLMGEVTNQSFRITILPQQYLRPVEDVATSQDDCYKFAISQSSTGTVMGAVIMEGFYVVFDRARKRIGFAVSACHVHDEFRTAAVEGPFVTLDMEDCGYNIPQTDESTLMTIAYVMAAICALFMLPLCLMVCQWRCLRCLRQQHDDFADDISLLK

SMILES: CN1C(=O)C2(NNC(c3cccc4ccccc34)S2)c2ccccc21 (stereo not drawn)
- IC50 [1]: 430 nM
- dose-dependent inhibition of β-secretase ([2]; 3 concentrations (0.1, 1, and 10 μM)): exhibited a dose-dependent effect
- IC50 ([2]; read-out: enzymatic IC50 (FRET-based BACE1 assay), 12 doses): 2310 nM

From patent US20110071124A1, “Compounds that Inhibit Production of sAPPB and AB and Uses Thereof” (The Trustees of Columbia University in the City of New York, priority 2008, published 2011)
